{"sequences": {"note": "Chains of the proteins cited; added tags and fusions are not shown. Lines headed by an entry give the natural chain unless they say otherwise; changes in a name come on top. Residues count along the entry.", "UniProt Q13705, 19-512": "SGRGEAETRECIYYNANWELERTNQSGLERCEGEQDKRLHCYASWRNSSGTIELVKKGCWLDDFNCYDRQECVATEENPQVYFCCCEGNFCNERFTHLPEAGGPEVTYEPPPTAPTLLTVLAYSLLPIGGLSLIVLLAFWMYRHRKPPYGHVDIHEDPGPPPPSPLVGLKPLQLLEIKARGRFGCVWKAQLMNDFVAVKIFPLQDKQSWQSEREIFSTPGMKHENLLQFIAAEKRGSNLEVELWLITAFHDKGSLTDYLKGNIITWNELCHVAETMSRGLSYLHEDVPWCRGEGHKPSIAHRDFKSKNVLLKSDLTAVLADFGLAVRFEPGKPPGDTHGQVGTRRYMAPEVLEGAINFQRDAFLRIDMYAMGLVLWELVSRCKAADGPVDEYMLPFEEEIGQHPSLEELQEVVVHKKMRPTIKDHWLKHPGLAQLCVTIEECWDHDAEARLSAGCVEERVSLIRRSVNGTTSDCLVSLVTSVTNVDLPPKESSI", "UniProt Q15375, 28-998": "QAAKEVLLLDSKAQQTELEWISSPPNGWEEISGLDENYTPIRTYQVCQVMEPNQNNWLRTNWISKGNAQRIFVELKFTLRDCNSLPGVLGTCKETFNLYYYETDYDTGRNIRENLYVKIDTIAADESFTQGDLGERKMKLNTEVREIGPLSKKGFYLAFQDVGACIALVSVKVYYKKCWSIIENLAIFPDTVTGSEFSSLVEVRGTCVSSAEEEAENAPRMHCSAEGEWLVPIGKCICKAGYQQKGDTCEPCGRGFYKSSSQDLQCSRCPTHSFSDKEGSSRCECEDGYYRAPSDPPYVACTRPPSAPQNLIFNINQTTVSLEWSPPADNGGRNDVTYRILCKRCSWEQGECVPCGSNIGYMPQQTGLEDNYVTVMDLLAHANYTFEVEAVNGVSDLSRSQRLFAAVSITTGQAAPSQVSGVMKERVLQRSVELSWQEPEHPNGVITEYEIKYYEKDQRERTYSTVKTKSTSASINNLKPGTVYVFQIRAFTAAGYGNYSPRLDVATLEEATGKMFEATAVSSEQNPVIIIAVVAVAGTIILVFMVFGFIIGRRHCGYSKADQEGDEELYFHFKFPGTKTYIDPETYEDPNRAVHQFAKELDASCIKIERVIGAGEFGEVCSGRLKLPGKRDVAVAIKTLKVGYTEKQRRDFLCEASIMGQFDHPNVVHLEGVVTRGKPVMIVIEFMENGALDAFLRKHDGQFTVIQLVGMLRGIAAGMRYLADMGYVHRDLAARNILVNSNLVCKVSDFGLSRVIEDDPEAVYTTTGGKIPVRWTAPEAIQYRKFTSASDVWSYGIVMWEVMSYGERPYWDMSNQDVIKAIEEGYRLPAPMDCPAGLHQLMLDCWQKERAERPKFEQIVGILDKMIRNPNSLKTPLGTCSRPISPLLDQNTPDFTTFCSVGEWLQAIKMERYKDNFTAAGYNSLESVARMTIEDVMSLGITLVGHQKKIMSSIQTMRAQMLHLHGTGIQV", "UniProt Q9Y4K4": "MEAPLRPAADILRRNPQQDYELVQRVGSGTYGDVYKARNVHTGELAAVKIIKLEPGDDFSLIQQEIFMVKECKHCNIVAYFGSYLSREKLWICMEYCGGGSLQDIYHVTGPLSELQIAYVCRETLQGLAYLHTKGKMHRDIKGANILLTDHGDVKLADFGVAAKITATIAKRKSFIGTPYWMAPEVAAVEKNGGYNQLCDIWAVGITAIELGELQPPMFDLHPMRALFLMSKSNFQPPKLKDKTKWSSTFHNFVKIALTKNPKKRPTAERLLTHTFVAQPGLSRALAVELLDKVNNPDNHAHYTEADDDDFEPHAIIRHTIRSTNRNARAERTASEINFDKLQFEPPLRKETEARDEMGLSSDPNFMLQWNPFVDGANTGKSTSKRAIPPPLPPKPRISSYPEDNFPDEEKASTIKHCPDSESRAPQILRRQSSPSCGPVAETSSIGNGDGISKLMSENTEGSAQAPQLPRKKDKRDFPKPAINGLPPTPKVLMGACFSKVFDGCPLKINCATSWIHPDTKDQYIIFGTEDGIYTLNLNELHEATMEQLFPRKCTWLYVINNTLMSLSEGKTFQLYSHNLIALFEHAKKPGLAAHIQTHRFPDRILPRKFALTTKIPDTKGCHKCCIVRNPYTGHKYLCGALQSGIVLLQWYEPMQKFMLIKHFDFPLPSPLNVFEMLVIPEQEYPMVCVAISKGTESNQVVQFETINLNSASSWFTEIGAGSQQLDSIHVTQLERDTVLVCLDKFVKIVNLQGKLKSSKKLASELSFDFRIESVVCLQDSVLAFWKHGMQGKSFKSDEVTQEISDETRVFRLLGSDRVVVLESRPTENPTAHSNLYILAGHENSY", "UniProt P36888, 27-993": "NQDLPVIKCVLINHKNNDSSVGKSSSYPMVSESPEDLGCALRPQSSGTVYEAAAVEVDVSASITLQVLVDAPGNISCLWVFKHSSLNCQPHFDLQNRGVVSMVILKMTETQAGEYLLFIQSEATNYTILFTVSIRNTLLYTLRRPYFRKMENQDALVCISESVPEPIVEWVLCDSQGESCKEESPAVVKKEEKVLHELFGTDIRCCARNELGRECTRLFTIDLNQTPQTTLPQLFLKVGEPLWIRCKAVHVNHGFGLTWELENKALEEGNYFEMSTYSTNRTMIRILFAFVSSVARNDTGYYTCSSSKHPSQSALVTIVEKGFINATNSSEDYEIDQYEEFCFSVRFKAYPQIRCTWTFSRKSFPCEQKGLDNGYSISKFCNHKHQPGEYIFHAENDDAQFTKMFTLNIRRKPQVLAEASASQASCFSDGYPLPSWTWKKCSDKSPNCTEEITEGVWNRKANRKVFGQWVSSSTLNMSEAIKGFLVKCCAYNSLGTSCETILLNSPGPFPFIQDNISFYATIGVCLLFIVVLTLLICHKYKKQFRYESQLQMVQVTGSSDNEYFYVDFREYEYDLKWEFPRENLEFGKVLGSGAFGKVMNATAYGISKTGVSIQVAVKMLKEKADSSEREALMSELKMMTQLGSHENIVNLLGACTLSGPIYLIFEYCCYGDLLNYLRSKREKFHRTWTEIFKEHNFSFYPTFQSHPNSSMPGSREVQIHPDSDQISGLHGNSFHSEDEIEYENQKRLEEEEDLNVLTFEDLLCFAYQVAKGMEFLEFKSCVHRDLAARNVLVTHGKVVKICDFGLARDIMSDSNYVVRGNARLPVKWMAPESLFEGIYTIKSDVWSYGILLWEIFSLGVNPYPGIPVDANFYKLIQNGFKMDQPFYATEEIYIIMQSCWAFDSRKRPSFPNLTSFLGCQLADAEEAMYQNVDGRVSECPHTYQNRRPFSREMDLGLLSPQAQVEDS", "UniProt Q16584": "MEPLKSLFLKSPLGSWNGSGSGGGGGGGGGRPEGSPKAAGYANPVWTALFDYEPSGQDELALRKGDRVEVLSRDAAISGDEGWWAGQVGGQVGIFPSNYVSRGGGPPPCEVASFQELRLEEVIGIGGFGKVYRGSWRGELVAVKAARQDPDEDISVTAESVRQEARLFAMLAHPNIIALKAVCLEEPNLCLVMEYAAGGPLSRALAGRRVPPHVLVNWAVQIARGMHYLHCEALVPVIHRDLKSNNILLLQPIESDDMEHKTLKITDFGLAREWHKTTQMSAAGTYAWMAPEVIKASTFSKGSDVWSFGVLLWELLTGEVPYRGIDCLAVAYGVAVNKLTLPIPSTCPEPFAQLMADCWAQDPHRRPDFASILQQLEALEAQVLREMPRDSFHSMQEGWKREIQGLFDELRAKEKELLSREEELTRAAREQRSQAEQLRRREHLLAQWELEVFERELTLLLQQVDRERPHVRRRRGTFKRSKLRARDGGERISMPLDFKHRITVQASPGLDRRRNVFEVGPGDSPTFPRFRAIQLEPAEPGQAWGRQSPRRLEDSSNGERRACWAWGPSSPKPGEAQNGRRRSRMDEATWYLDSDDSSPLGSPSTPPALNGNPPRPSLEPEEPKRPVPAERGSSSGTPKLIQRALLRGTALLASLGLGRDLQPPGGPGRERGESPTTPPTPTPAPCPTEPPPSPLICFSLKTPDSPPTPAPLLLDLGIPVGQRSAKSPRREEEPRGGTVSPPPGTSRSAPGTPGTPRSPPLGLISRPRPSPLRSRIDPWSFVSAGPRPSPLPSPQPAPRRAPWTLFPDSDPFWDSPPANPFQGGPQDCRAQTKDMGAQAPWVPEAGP", "UniProt P21802, 22-821": "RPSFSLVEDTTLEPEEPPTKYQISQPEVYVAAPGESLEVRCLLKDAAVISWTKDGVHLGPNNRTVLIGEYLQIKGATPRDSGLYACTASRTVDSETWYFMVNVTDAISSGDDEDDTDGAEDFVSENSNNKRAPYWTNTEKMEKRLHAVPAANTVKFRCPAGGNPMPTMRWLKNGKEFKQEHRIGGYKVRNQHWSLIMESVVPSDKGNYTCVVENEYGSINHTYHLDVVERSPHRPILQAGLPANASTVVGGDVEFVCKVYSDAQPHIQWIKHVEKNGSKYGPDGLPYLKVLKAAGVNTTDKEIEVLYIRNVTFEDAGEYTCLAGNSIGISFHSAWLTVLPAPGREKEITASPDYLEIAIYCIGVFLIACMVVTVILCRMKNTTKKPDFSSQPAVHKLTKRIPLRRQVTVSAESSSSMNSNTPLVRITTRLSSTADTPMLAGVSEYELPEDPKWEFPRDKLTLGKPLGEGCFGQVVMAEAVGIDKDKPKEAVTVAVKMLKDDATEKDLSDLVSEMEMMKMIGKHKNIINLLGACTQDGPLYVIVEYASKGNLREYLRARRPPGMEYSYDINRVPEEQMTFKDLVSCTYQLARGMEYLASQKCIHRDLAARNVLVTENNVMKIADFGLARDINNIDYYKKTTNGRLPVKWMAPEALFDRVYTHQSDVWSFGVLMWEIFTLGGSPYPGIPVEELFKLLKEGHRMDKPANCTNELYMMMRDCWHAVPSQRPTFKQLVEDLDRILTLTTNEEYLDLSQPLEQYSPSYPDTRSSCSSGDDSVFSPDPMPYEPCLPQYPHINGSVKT", "UniProt P36894, 24-532": "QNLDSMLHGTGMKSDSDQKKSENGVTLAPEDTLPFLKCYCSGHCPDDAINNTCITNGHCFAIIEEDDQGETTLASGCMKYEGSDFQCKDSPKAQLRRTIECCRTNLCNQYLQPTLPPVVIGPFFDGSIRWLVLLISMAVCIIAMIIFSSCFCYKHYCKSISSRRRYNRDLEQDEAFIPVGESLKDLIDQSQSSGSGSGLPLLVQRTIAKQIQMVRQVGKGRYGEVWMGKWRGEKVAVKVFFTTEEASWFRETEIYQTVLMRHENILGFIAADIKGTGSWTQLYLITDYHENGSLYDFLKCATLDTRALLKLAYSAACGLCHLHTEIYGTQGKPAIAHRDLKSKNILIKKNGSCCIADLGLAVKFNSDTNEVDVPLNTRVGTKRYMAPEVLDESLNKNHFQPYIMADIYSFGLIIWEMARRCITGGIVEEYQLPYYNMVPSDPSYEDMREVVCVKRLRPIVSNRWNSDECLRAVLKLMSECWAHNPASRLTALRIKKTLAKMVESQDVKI", "UniProt P07949, 29-1114": "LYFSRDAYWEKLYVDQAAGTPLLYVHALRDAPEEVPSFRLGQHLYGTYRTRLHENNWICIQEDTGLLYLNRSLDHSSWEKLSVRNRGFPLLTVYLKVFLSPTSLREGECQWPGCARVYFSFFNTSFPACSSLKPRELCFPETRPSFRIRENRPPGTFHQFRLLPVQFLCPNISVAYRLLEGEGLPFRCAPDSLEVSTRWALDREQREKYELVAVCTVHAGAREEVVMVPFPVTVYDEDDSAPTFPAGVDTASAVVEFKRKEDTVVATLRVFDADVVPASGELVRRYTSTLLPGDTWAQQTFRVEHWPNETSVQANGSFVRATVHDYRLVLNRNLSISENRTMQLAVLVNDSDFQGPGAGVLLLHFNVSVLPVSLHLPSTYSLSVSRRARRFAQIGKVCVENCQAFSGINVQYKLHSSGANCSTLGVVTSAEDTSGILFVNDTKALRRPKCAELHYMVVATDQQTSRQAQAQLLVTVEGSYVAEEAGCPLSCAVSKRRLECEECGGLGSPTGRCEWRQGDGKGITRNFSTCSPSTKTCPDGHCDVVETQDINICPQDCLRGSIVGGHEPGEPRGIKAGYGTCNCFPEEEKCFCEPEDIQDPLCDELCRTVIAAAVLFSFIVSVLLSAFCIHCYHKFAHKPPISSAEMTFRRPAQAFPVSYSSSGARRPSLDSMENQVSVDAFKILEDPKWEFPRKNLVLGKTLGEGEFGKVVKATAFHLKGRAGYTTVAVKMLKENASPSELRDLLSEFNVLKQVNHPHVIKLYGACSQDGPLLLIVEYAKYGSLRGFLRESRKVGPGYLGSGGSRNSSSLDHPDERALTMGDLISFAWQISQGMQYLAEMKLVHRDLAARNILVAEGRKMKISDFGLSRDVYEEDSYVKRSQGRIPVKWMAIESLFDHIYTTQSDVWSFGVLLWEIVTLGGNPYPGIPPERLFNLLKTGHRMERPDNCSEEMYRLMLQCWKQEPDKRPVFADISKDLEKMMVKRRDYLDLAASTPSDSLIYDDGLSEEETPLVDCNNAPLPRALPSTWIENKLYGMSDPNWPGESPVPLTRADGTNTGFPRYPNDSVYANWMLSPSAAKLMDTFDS"}, "source": "patent US12139480B2", "about": "“5-thiazolecarboxamide kinase inhibitor and uses thereof” (iOmx Therapeutics AG, priority 2018, dated 2024)", "key": {"ACV-R2B": {"target": "ACV-R2B (Homo sapiens, UniProt Q13705)", "experiment": "biochemical", "details": "read-out: Residual activity (%) at 1 uM"}, "ERBB2": {"target": "ERBB2 (Homo sapiens, UniProt P04626)", "experiment": "single-point (1 uM) inhibition assay (ProQinase Kinase Profiler)", "assay_type": "biochemical", "details": "read-out: Residual activity (%) at 1 uM"}, "EPH-A7": {"target": "EPH-A7 (Homo sapiens, UniProt Q15375)", "experiment": "single-point (1 uM) inhibition assay (ProQinase Kinase Profiler)", "assay_type": "biochemical", "details": "read-out: Residual activity (%) at 1 uM"}, "MAP4K5": {"target": "T1, MAP4K5 (Homo sapiens, UniProt Q9Y4K4)", "T1 construct": "purchased ProQinase", "experiment": "single-point (1 uM) inhibition assay (ProQinase Kinase Profiler)", "assay_type": "biochemical", "details": "read-out: Residual activity (%) at 1 uM"}, "FLT3": {"target": "T2, FLT3 (Homo sapiens, UniProt P36888)", "T2 construct": "purchased ProQinase", "experiment": "single-point (1 uM) inhibition assay (ProQinase Kinase Profiler)", "assay_type": "biochemical", "details": "read-out: Residual activity (%) at 1 uM"}, "MAP3K11": {"target": "MAP3K11 (Homo sapiens, UniProt Q16584)", "experiment": "single-point (1 uM) inhibition assay (ProQinase Kinase Profiler)", "assay_type": "biochemical", "details": "read-out: Residual activity (%) at 1 uM"}, "PDGFR-alpha": {"target": "T3, PDGFR-alpha (Homo sapiens, UniProt P16234)", "T3 construct": "purchased ProQinase", "experiment": "single-point (1 uM) inhibition assay (ProQinase Kinase Profiler)", "assay_type": "biochemical", "details": "read-out: Residual activity (%) at 1 uM"}, "FGF-R2": {"target": "FGF-R2 (Homo sapiens, UniProt P21802)", "experiment": "single-point (1 uM) inhibition assay (ProQinase Kinase Profiler)", "assay_type": "biochemical", "details": "read-out: Residual activity (%) at 1 uM"}, "BMPR1A": {"target": "T4, BMPR1A (Homo sapiens, UniProt P36894)", "T4 construct": "purchased ProQinase, Freiburg, Germany (Kinase Profiler panel)", "experiment": "single-point (1 uM) inhibition assay (ProQinase Kinase Profiler)", "assay_type": "biochemical", "details": "read-out: Residual activity (%) at 1 uM"}, "EPHB2": {"target": "T5, EPHB2 (Homo sapiens, UniProt P29323)", "T5 construct": "purchased ProQinase", "experiment": "single-point (1 uM) inhibition assay (ProQinase Kinase Profiler)", "assay_type": "biochemical", "details": "read-out: Residual activity (%) at 1 uM"}, "EPHA6": {"target": "T6, EPHA6 (Homo sapiens, UniProt Q9UF33)", "T6 sequence (Q9UF33 23-1036)": "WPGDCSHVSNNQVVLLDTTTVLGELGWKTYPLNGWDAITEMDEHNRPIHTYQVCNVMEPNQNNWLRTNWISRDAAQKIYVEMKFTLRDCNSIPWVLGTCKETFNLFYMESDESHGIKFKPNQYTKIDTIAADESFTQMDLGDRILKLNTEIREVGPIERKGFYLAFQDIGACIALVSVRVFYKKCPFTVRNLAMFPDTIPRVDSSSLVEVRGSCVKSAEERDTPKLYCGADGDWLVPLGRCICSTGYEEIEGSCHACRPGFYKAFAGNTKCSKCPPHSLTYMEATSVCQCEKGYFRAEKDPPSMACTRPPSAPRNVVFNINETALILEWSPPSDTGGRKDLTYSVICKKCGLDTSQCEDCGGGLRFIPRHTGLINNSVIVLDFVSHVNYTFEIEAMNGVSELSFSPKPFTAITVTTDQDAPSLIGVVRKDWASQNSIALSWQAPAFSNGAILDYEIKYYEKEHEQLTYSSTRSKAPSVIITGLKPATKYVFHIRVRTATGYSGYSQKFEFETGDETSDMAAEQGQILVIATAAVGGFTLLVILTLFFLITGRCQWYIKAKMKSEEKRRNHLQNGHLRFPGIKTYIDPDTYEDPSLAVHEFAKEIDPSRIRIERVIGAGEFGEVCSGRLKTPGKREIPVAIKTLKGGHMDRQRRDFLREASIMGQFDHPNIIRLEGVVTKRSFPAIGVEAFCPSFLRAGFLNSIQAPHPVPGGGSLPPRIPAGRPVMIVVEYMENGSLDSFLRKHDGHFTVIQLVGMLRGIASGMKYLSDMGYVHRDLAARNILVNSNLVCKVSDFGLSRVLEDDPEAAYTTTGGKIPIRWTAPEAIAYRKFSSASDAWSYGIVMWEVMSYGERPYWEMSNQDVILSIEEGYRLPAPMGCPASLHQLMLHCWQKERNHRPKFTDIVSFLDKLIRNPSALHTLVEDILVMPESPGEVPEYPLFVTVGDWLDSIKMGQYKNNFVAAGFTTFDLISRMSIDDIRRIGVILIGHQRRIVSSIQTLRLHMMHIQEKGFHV", "experiment": "single-point (1 uM) inhibition assay (ProQinase Kinase Profiler)", "assay_type": "biochemical", "details": "read-out: Residual activity (%) at 1 uM"}, "RET": {"target": "T7, RET (Homo sapiens, UniProt P07949)", "T7 construct": "purchased ProQinase, Freiburg, Germany (Kinase Profiler panel)", "experiment": "single-point (1 uM) inhibition assay (ProQinase Kinase Profiler)", "assay_type": "biochemical"}}}
{"smiles": "Cc1nc(Nc2ncc(C(=O)Nc3c(Cl)ccnc3C)s2)cc(N2CCN(CCO)CC2)n1", "note": "[Compound B3, N-(4-chloro-2-methylpyridin-3-yl)-2-((6-(4-(2-hydroxyethyl)piperazin-1-yl)-2-methylpyrimidin-4-yl)amino)thiazole-5-carboxamide]", "values": [{"measurement": "remaining activity at 1 µM", "setting": "ACV-R2B", "value": 57, "unit": "%"}, {"measurement": "remaining activity at 1 µM", "setting": "ERBB2", "value": 84, "unit": "%"}, {"measurement": "remaining activity at 1 µM", "setting": "EPH-A7", "value": 88, "unit": "%"}, {"measurement": "remaining activity at 1 µM", "setting": "MAP4K5", "value": 28, "unit": "%"}, {"measurement": "remaining activity at 1 µM", "setting": "FLT3", "value": 32, "unit": "%"}, {"measurement": "remaining activity at 1 µM", "setting": "MAP3K11", "value": 61, "unit": "%"}, {"measurement": "remaining activity at 1 µM", "setting": "PDGFR-alpha", "value": 18, "unit": "%"}, {"measurement": "remaining activity at 1 µM", "setting": "FGF-R2", "value": 74, "unit": "%"}, {"measurement": "remaining activity at 1 µM", "setting": "BMPR1A", "value": 83, "unit": "%"}, {"measurement": "remaining activity at 1 µM", "setting": "EPHB2", "value": 15, "unit": "%"}, {"measurement": "remaining activity at 1 µM", "setting": "EPHA6", "value": 86, "unit": "%"}, {"measurement": "Residual activity (%) at 1 uM", "setting": "RET", "value": 98, "unit": "%"}]}
